Assay results as given in PMC12598741 (Antibody Therapeutics, 2025).

Protein sequences, listed by entry. Tags and fused reporters are not part of them. Residues count along the entry.
UniProt P08508, 31-215: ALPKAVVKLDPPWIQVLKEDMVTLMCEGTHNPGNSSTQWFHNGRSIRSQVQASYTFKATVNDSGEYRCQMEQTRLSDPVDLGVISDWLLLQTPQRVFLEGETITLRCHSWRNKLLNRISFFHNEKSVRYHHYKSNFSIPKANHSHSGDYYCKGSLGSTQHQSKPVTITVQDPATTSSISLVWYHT

Target: mouse CD16 (mCD16), his-tagged (Mus musculus, UniProt P08508)
Assay: BLI
Conditions: both partners purified

B1: hIgG4 bsAb by modular replacement: golimumab (Gmab) heavy chain with L6 light chain (bispecific antibody, V domains shown)
VH: QVQLVESGGGVVQPGRSLRLSCAASGFIFSSYAMHWVRQAPGNGLEWVAFMSYDGSNKKYADSVKGRFTISRDNSKNTLYLQMNSLRAEDTAVYYCARDRGIAAGGNYYYYGMDVWGQGTTVTVSS
VL: EIVLTQSPGTLSLSPGERATLSCRASGSTFSSYTLAWYQQKPGQAPRLLIYIYSDGGRTSRATGIPDRFSGSGSGTDLTLTISRLEPEDFAVYYCNAESPFYDYDYWGKGTKVEIK
B1: binds.
